Assay results from patent publication US20020015967A1, “FUNCTIONAL EXPRESSION OF ADENOSINE RECEPTORS IN YEAST” (priority 1998, published 2002).

Protein sequences, listed by entry. Tags and fused reporters are not part of them.
UniProt P0DMS8, whole entry: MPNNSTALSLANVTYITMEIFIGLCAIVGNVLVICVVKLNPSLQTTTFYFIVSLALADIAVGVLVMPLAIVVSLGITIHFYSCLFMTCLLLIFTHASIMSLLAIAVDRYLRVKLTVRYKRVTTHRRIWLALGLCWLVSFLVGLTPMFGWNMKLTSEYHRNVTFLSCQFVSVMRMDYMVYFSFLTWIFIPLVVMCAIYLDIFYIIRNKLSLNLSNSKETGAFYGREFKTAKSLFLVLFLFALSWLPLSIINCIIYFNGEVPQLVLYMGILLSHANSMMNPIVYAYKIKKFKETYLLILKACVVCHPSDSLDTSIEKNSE

Biological target: T1, human A3 receptor (Homo sapiens, UniProt P0DMS8)
T1 construct: expressed in transfected cells
Experiment: Radioligand displacement binding, [125I]AB-MECA, mammalian membranes
Conditions: [125I]AB-MECA 0.75 nM; 10 ug mammalian membranes; 60 minutes room temperature; read-out: IC50 hA3R

(—)—N6-(2-phenylisopropyl)-adenosine [PIA]
IC50: 0.0236 µM
